# Data published in PMC4525181, “Structural and dynamic insights into the energetics of activation loop rearrangement in FGFR1 kinase” (Nature Communications, 2015).
# Protein sequences, listed by entry. Tags and fused reporters are not part of them. Residues count along the entry.
# UniProt P11362, 458-765 C488A/C584S limits assumed: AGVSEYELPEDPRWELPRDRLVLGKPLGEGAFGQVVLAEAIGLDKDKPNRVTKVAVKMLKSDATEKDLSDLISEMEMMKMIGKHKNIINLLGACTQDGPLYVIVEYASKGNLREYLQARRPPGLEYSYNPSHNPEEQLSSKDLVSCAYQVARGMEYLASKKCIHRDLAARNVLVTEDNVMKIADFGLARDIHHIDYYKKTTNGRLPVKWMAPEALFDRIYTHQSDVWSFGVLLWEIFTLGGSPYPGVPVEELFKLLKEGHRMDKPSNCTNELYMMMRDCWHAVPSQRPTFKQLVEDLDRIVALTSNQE
# Legend:
# [1] = molecular target: T1, FGFR1 kinase domain (Homo sapiens, UniProt P11362, C488A/C584S); experiment: Isothermal titration calorimetry (ITC) of inhibitors binding to FGFR1; settings: for -TΔS (ITC) / N (ITC stoichiometry) / ΔG (ITC) / ΔH (ITC): 298.15 K
# [2] = molecular target: T1, FGFR1 kinase domain; experiment: SPR kinetic analysis of inhibitors binding to FGFR1 kinase domain; settings: read-out: KD (koff/kon), 298 K, pH 7.4
-TΔS (ITC) [1] [kcal/mol],N (ITC stoichiometry) [1],ΔG (ITC) [1] [kcal/mol],ΔH (ITC) [1] [kcal/mol],"pKd ([1]; read-out: KD (ITC), 298 K)",pKd [2],SMILES
-4.0 ± 0.4,1.1±0.01,-9.8 ± 0.1,-5.7 ± 0.4,–,–,Cc1cc(CNc2nccc(Nc3cc(CCc4ccccc4)[nH]n3)n2)on1
3.0 ± 0.4,0.8±0.001,-12.0 ± 0.1,-15.0 ± 0.6,8.80,9.15,CCN1CCC(c2ccc(C(=O)Nc3cc(CCc4cc(OC)cc(OC)c4)[nH]n3)cc2)CC1

# pKd: −log10 of the molar value.
